# Experimental logP (octanol/water) values from OPERA 2.9

From the experimental data distributed with OPERA 2.9.

logP is the log10 of the octanol-water partition coefficient; higher is more lipophilic.
"via" names the databases from which the curators took the value.

| structure (SMILES) | logP (octanol/water) | via |
|---|---|---|
| C=COCC1CCC(COC=C)CC1 (stereo not given) | 3.65 | eChemPortal |
| CNC(=C[N+](=O)[O-])NCCSCc1csc(CN(C)C)n1 | 1.1 | PubChem |
| Clc1ccc(-c2c(Cl)c(Cl)cc(Cl)c2Cl)c(Cl)c1Cl | 7.08 | OCHEM |
| NCCOCCN | -2.12 | eChemPortal |
| NCCNCCO | -1.46 | eChemPortal |
| CC(C)(C)OC(=O)C(C)(C)O/N=C(\C(=O)Sc1nc2ccccc2s1)c1csc(N)n1 | 4.14 | eChemPortal |
| CC(=O)OCC(=O)C1=CC[C@@H]2[C@H]3CCC4=CC(=O)C=C[C@@]4(C)[C@@H]3[C@H](OC(C)=O)C[C@@]12C | 2.8 | eChemPortal |
| O=C([O-])C1=NN(c2ccc(S(=O)(=O)[O-])cc2)C(=O)C1/N=N/c1ccc(NC(=O)c2ccc3nc(Cl)c(Cl)nc3c2)cc1S(=O)(=O)[O-].[Na+].[Na+].[Na+] (stereo partly drawn) | -4.7 | eChemPortal |
| CC(C)=CCCC1=CCC(C)(C=O)CC1 (stereo not given) | 4.69 | OCHEM |
| Cc1nc2c([nH]1)CCN(C(=O)c1ccc(NC(=O)c3ccccc3-c3ccccc3)cc1)c1ccccc1-2 | 6.3 | PubChem |
| C1=C\CCCCCC/1 | 5 | eChemPortal |
| CC(=O)OC1CCC2C3CCc4cc(O)ccc4C3CCC12C (stereo not given) | 4 | eChemPortal |
| COC(=O)c1ccc(C(=O)OC)c(C(=O)OC)c1 | 1.96 | eChemPortal |
| C=C(C)C(=O)OCCOc1ccc(C(=O)c2ccccc2)c(O)c1 | 3.7 | eChemPortal |
| OC1=NC(Oc2c3ccccc3cc3ccccc23)C1 (stereo not given) | 3.08 | OCHEM |
| Cc1cc(N)c([N+](=O)[O-])cc1C | 2.07 | OCHEM |
| CC(=O)[O-].CCN(CC[n+]1ccccc1)c1ccc(/N=N/c2ccc([N+](=O)[O-])cc2Cl)cc1 | 0.399 | eChemPortal |
| Cc1ccc(NCCO)cc1O | 0.772 | eChemPortal |
| Cc1ncc(CN)c(N)n1 | -2.27 | eChemPortal |
| O=[N+]([O-])C1(Br)COCOC1 | 1.6 | eChemPortal |
| O=C(N[C@H](C(=O)O)C1CCCCC1)OCc1ccccc1 | 1.7 | eChemPortal |
| CC(=O)OCC(=O)[C@H]1[C@H](C)C[C@H]2[C@@H]3C[C@H](F)C4=CC(=O)CC[C@]4(C)[C@H]3CC[C@@]21C | 3.31 | eChemPortal |
| CCc1ccc(-c2ccccc2)cc1 | 5.08 | OCHEM |
| FC(F)(F)C(F)(F)C(F)(F)C(F)(F)C(F)(F)C(F)(F)C(F)(F)C(F)(F)Br | 6.1 | eChemPortal |
| C/C=C/C=C/C(=O)OCCC[Si](OC)(OC)OC | 3.09 | eChemPortal |
| CCN(CC)c1ccc(N=Nc2c(Cl)cc([N+](=O)[O-])cc2[N+](=O)[O-])c(NC(C)=O)c1 | 5.8 | eChemPortal |
| COc1ccccc1N1CCN(CCCCc2ccc(F)cc2)CC1 | 4.8 | OCHEM |
| Cc1cc(Nc2cc(S(=O)(=O)[O-])c(N)c3c2C(=O)c2ccccc2C3=O)cc(S(=O)(=O)NCCO)c1C.[Na+] | -0.05 | eChemPortal |
| CCCc1nc2c(C)cc(-c3nc4ccccc4n3C)cc2[nH]1 | 3.49 | eChemPortal |
| CCCCCCCCCCCCCCCCCC(N)=O | 6.7 | PubChem |
| Brc1cccc(Oc2ccc(Br)c(Br)c2)c1 | 5.52 | OCHEM |
| CC(=O)OC(C)C1CCCCC1 (stereo not given) | 3.2 | eChemPortal |
| CC1=C(C(=O)O)N2C(=O)[C@@H](NC(=O)[C@H](N)C3=CCC=CC3)[C@H]2SC1 | -1.5 | PubChem |
| O=C1OCCN1CCCO | -1.22 | eChemPortal |
| CCCCCCC(=O)CO | 1.683 | eChemPortal |
| C[N+](C)(C)CCO.[OH-] | -2.25 | eChemPortal |
| CCCCOC(=O)CC(O)(CC(=O)OCCCC)C(=O)OCCCC | 3.5 | eChemPortal |

The last 3 entries again:

{"smiles": "CCCCCCC(=O)CO", "logP (octanol/water)": "1.683", "via": "eChemPortal"}
{"smiles": "C[N+](C)(C)CCO.[OH-]", "logP (octanol/water)": "-2.25", "via": "eChemPortal"}
{"smiles": "CCCCOC(=O)CC(O)(CC(=O)OCCCC)C(=O)OCCCC", "logP (octanol/water)": "3.5", "via": "eChemPortal"}

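The numbers are reported measurements, compiled and curated for the OPERA QSAR suite. A listed value is a point estimate from one report or more. How each value was measured is not recorded, so precision varies. The measured form (salt, isomer or mixture) is not always the one drawn. Unmarked limits or estimates from the upstream databases cannot be ruled out.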